Assay [1] deals with T1, Protein Serine/Threonine Kinase MEK1 (Oryctolagus cuniculus, UniProt P29678). Kind of assay: MEK1 enzyme inhibition assay (Elisa quantitation of MBP-P). Type of assay: biochemical, rabbit. Also on record: made in house; host or cells: E. coli.
Assay [2] has as its target T1, Protein Serine/Threonine Kinase MEK1. The conditions noted are these: read-out: IC50 (historical); reference compound, historical value; cited from earlier work.

Chains of the proteins cited; added tags and fusions are not shown.
UniProt P29678, whole entry: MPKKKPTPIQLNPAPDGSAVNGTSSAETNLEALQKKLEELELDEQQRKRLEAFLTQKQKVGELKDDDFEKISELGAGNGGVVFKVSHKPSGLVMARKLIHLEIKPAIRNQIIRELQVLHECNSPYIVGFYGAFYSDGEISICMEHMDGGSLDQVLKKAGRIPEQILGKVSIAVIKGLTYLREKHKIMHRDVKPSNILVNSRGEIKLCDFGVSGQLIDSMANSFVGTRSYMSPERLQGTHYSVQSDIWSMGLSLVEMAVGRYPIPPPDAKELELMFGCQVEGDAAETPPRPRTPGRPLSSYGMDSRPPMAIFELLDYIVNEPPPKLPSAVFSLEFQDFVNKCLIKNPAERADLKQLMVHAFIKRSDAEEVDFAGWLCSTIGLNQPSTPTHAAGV

Read-outs that look alike come from different tables or passages of the source.

In general, IC50 refers to the concentration that inhibits the measured activity by half. For `CN[C@@H]1C[C@H]2O[C@@](C)([C@@H]1OC)n1c3ccccc3c3c4c(c5c6ccccc6n2c5c31)C(=O)NC4` [Staurosporine], the IC50 in assay [1] was 2.1 nM; in assay [2] it was 3.8 nM.

The values are drawn from patent US20070061084A1, “Method, system, and knowledge repository for identifying a secondary metabolite from a microorganism” (Ecopia BioSciences, Inc., priority 2002, published 2007).
